{
  "source": "patent US9039924B2",
  "about": "(priority 2010, dated 2015)",
  "key": {"[1]": {"assay": "Reference test: ammonium nitrate mixed with water in a 100 ml container placed in a 360 ml container of water", "conditions": "around 60 grams of 200 mesh ammonium nitrate in 50 grams water; after around 30 seconds; initial 25° C."}},
  "note": "This is a selection: effects in other tests are not listed, and their absence says nothing.",
  "data": [
    {"substance": "ammonium nitrate", "values": [
      {"measurement": "Heat Absorbed (during dissolution of compound in 100 gm of water at 25° C. in kJ)", "setting": "saturated solution in 100 gm of water at 25° C.", "result": 48.13, "unit": "kJ"},
      {"measurement": "Theoretical Change in Temperature of a saturated solution (° C.)", "setting": "saturated solution, no heat loss", "result": 46, "unit": "°C"},
      {"measurement": "temperature of the saturated solution in the 100 ml container", "setting": "[1]", "result": "−7", "unit": "°C"}
    ]}
  ]
}
